# Source: article PMC7452071 (Acta Pharmaceutica Sinica. B, 2019)
# Test system: HCT116 cells
# Test: Flow cytometry assay of cell apoptosis
# Assay type: cell-based, human
# Conditions: 48 h
smiles,measurement,setting,value
"O=C(CCCCCCC(=O)Nc1ccccc1)NO [Compound 1, vorinostat, reference compound]",Percentage of apoptotic cells,"HCT116, 0.5 μmol/L",18.3%
same,Percentage of apoptotic cells,"HCT116, 1 μmol/L",39.8%
same,Percentage of apoptotic cells,"HCT116, 5 μmol/L",71.4%
